# Experimental data as given in PubChem BioAssay AID1117319 (Southern Research Institute, 2015).
# Protein sequences, listed by entry. Tags and fused reporters are not part of them. Lines headed by an entry give the natural chain unless they say otherwise; changes in a name come on top.
# UniProt P69720: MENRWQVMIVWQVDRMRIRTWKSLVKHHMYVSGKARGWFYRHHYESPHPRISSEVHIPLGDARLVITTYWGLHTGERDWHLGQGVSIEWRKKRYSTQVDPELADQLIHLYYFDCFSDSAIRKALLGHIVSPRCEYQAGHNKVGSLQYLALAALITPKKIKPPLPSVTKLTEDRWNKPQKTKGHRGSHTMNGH
# UniProt P69721: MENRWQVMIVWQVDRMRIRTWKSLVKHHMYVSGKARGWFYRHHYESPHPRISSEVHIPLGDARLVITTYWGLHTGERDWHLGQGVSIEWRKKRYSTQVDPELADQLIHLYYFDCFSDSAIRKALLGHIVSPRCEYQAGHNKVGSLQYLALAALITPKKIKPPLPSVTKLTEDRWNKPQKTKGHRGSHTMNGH
# UniProt P69722: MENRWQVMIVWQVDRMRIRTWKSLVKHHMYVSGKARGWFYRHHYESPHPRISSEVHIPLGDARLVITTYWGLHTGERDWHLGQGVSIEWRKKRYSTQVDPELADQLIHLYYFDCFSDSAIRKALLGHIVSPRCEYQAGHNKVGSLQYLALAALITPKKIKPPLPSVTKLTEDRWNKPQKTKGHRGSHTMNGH
# UniProt P69723: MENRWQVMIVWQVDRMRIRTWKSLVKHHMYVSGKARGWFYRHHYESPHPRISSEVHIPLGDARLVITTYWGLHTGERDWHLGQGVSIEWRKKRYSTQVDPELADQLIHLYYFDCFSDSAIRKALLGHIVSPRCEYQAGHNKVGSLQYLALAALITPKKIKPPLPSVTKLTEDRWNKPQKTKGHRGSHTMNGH
# UniProt Q9HC16: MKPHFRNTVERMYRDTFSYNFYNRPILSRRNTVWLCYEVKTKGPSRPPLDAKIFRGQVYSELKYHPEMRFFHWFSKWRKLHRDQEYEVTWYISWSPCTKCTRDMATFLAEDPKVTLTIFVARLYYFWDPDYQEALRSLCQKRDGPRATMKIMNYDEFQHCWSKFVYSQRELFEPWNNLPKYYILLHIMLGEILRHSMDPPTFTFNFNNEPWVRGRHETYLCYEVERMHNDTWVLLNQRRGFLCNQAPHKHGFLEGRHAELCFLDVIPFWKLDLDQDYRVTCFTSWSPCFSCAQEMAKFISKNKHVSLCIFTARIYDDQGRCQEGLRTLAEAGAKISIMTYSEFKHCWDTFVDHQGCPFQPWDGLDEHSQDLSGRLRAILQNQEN
# Screen size: about 260,000 compounds; about 1,500 (0.58%) were called active. These results got no clear call from the source, so the numbers are uncertain.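 How the source made its calls: active means inhibition above a set limit at one or more doses, reproduced on every date tested; inconclusive means results disagree between test dates, or hit never tested in dose response; inactive means the rest.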
# Biological target: Virion infectivity factor (Human immunodeficiency virus type 1 group M subtype B (isolate BH10)) + Virion infectivity factor (Human immunodeficiency virus type 1 group M subtype B (isolate BRU/LAI)) + Virion infectivity factor (Human immunodeficiency virus type 1 group M subtype B (isolate PCV12)) + Virion infectivity factor (Human immunodeficiency virus type 1 group M subtype B (isolate HXB2)) + DNA dC->dU-editing enzyme APOBEC-3G (Homo sapiens) (UniProt P69720+P69721+P69722+P69723+Q9HC16)
# Assay: inhibitors of Vif binding to APOBEC3G peptide, primary screen, biochemical, TR-FRET, GST-Vif 1-94, biotin-A3G peptide, dose response retest (AID 1117319);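 further: Vif residues 1-94 fused to GST binding biotinylated APOBEC3G peptide 110-148; 0% = full assay without inhibitor and 100% = GST in place of GST-Vif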
# Settings: hits give high values
row,SMILES,inhibition
1,CCOC(=O)c1ccc(NC(=O)C(C)(CCl)SC)cc1 (stereo not given),inconclusive: 33.2%
2,O=P(Nc1nccs1)(c1ccccc1)c1nc2ccccc2s1 (stereo not given),inconclusive: 50.2%
3,CS(=O)(=O)c1cc([N+](=O)[O-])c2no[n+]([O-])c2c1,inconclusive: 38.2%
4,Cc1cccc(OCC(=O)OC2CN3CCC2CC3)c1 (stereo not given),inconclusive: 49.9%
5,CCCOP(=S)(Nc1nc(N)cc(=O)[nH]1)OCCC,inconclusive: 34%
6,CCc1nc2c(n1)c1c(non1O)c1c2no[n+]1[O-],inconclusive: 40.9%
7,C[N+]1=C2C=CC=CC=C2SC12C([N+](=O)[O-])=CC([N+](=O)[O-])=C[C-]2[N+](=O)[O-] (stereo not given),inconclusive: 62%
8,CC(C)=N/N=C(\N)N[N+](=O)[O-],inconclusive: 40.1%
9,O=P(Nc1nc2ccc(Cl)cc2s1)(c1ccccc1)c1ccccc1,inconclusive: 48.1%
10,Nc1cccc2ccc([As](=O)(O)O)cc12,inconclusive: 48.9%
